Source: patent US20090018642A1, “Methods to improve the stability of celluar adhesive proteins and peptides” (BOSTON SCIENTIFIC SCIMED, INC., priority 2007, published 2009)

Settings: coated at 100 μM; shelf 4° C. 2 weeks, EtO sterilized; OD at 10 min (405 nm)

In the case of “(DOPA)2-(ALA-Aib)3-RIGSY-(Biotin)-OH [PEPTIDE-2]”, the “impact of shelving and sterilizing on amount of peptide present on the stainless steel surface” value is reported as “do not negatively impact”.
